Membrane permeability of cyclic peptides

Values of Townsend et al. 2020, doi:10.26434/chemrxiv.13335941.v1, as listed in CycPeptMPDB.

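Conditions beyond the assay type are not listed; see the original paper. The list need not hold all peptides of the study. Peptides that the database sets to -10, its floor, are left out.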

PAMPA is the parallel artificial membrane permeability assay, which has no cells and reads passive diffusion.
P is given in units of 10^-6 cm/s (from log10 values with two decimals); larger means faster passage.

CC(C)C[C@H]1NC(=O)C[C@H](Cc2ccccc2)NC(=O)[C@H]2CCCN2C(=O)[C@H](Cc2ccccc2)NC(=O)CN(Cc2ccccc2)C(=O)[C@H]2CCCN2C(=O)[C@@H](CC(C)C)NC1=O is reported with PAMPA 0.56 × 10^-6 cm/s. CC(C)C[C@@H]1NC(=O)[C@H](C)N(C)C(=O)[C@@H]2CCCN2C(=O)[C@H](Cc2ccccc2)NC(=O)CN(Cc2ccccc2)C(=O)[C@H]2CCCN2C(=O)[C@@H](CC(C)C)NC1=O has PAMPA 1.5 × 10^-6 cm/s. CC(C)C[C@@H]1C(=O)N2CCC[C@H]2C(=O)N(C)[C@H](CC(C)C)C(=O)N[C@@H](Cc2ccccc2)C(=O)N[C@@H](C)C(=O)N(C)[C@@H](CC(C)C)C(=O)N1C is reported with PAMPA 8.5 × 10^-6 cm/s. CC(C)C[C@@H]1C(=O)N(C)[C@@H](CC(C)C)C(=O)N2CCC[C@@H]2C(=O)N(C)[C@@H](CC(C)C)C(=O)N[C@@H](Cc2ccccc2)C(=O)N[C@@H](Cc2ccccc2)CC(=O)N1C is reported with PAMPA 3 × 10^-6 cm/s. For CC(C)C[C@@H]1C(=O)N[C@H](CC(C)C)C(=O)N2CCC[C@@H]2C(=O)N(C)[C@H](CC(C)C)C(=O)N[C@@H](Cc2ccccc2)C(=O)N[C@@H](C)C(=O)N1C the data give PAMPA 6.3 × 10^-6 cm/s. Listed for CC(C)C[C@@H]1NC(=O)[C@@H](CC(C)C)N(C)C(=O)[C@H](C)NC(=O)[C@@H]2CCCN2C(=O)[C@H](Cc2ccccc2)NC(=O)CN(Cc2ccccc2)C(=O)[C@@H]2CCCN2C1=O: PAMPA 2 × 10^-6 cm/s. Listed for CC(C)C[C@@H]1NC(=O)[C@H](C)NC(=O)[C@@H]2CCCN2C(=O)[C@H](Cc2ccccc2)NC(=O)[C@@H](CC(C)C)N(C)C(=O)[C@@H]2CCCN2C(=O)[C@@H](CC(C)C)N(C)C1=O: PAMPA 1.8 × 10^-6 cm/s.

Listed for CC(C)C[C@@H]1NC(=O)[C@@H](C)N(C)C(=O)[C@H](Cc2ccccc2)NC(=O)[C@@H](CC(C)C)NC(=O)[C@H]2CCCN2C(=O)[C@H](CC(C)C)NC1=O: PAMPA 0.39 × 10^-6 cm/s. Listed for CC(C)C[C@@H]1NC(=O)[C@H]2CCCN2C(=O)[C@H](CC(C)C)NC(=O)[C@@H](CC(C)C)NC(=O)C[C@H](Cc2ccccc2)NC(=O)[C@H](Cc2ccccc2)NC1=O: PAMPA 16 × 10^-6 cm/s. Listed for CC(C)C[C@@H]1C(=O)N[C@@H](Cc2ccccc2)CC(=O)N2CCC[C@H]2C(=O)N(C)[C@@H](CC(C)C)C(=O)N[C@@H](Cc2ccccc2)C(=O)N2CCC[C@H]2C(=O)N[C@H](C)C(=O)N1C: PAMPA 3.9 × 10^-6 cm/s. For CC(C)C[C@@H]1NC(=O)C[C@H](Cc2ccccc2)NC(=O)[C@H](Cc2ccccc2)NC(=O)[C@@H](CC(C)C)N(C)C(=O)[C@H]2CCCN2C(=O)C[C@H](Cc2ccccc2)NC1=O the data give PAMPA 2.9 × 10^-6 cm/s. CC(C)C[C@@H]1C(=O)N(C)[C@H](CC(C)C)C(=O)N2CCC[C@@H]2C(=O)N(C)[C@@H](CC(C)C)C(=O)N[C@@H](Cc2ccccc2)C(=O)N2CCC[C@H]2C(=O)N(C)[C@H](C)C(=O)N1C has PAMPA 7.6 × 10^-6 cm/s. Listed for CC(C)C[C@@H]1C(=O)N[C@@H](Cc2ccccc2)C(=O)N2CCC[C@H]2C(=O)N(C)[C@H](C)C(=O)N(C)[C@@H](CC(C)C)C(=O)N[C@H](CC(C)C)C(=O)N2CCC[C@H]2C(=O)N1C: PAMPA 3.8 × 10^-6 cm/s. For CC(C)C[C@@H]1NC(=O)[C@H](C)N(C)C(=O)[C@H]2CCCN2C(=O)[C@H](Cc2ccccc2)NC(=O)[C@H](CC(C)C)N(C)C(=O)[C@@H]2CCCN2C(=O)[C@@H](CC(C)C)NC1=O the data give PAMPA 3.2 × 10^-6 cm/s.

The entry for CC(C)C[C@H]1NC(=O)[C@H]2CCCN2C(=O)CN(Cc2ccccc2)C(=O)[C@@H](CC(C)C)NC(=O)[C@H](C)N(C)C(=O)[C@H](Cc2ccccc2)NC1=O lists PAMPA 6.3 × 10^-6 cm/s. CC(C)C[C@@H]1NC(=O)[C@H](C)N(C)C(=O)[C@H]2CCCN2C(=O)[C@H](Cc2ccccc2)NC(=O)[C@@H](CC(C)C)N(C)C(=O)[C@H]2CCCN2C(=O)C[C@H](Cc2ccccc2)NC1=O has PAMPA 0.93 × 10^-6 cm/s. The entry for CC(C)C[C@@H]1NC(=O)[C@H]2CCCN2C(=O)[C@H](CC(C)C)N(C)C(=O)[C@@H](CC(C)C)N(C)C(=O)[C@H](C)N(C)C(=O)[C@H](Cc2ccccc2)NC1=O lists PAMPA 5.5 × 10^-6 cm/s. CC(C)C[C@H]1NC(=O)[C@H]2CCCN2C(=O)[C@H](CC(C)C)N(C)C(=O)[C@@H](CC(C)C)NC(=O)[C@H](C)N(C)C(=O)[C@H]2CCCN2C(=O)[C@H](Cc2ccccc2)NC1=O has PAMPA 3.4 × 10^-6 cm/s.

The 2 highest values of PAMPA among the entries above:

Listed for CC(C)C[C@@H]1NC(=O)[C@H]2CCCN2C(=O)[C@H](CC(C)C)NC(=O)[C@@H](CC(C)C)NC(=O)C[C@H](Cc2ccccc2)NC(=O)[C@H](Cc2ccccc2)NC1=O: PAMPA 16 × 10^-6 cm/s.
Listed for CC(C)C[C@@H]1C(=O)N2CCC[C@H]2C(=O)N(C)[C@H](CC(C)C)C(=O)N[C@@H](Cc2ccccc2)C(=O)N[C@@H](C)C(=O)N(C)[C@@H](CC(C)C)C(=O)N1C: PAMPA 8.5 × 10^-6 cm/s.